The results in this text go back to patent US6946076B2, “Removal of phosphate from water” (Dudley Mills Pty Ltd., priority 2001, dated 2005).

SMILES strings stand for the structures.

Regarding `O=C([O-])CO.O=C([O-])CO.O=C([O-])CO.[La+3]` [lanthanum glycolate], the “lanthanum of the second dose remaining unreacted” value is on record as “about 40%”.
